Test results reported in patent publication US20060122189A1, “Phenylpiperazine derivatives with a combination of partial dopamine-D2 receptor agonism and serotonin reuptake inhibition” (priority 2004, published 2006).
Like-named read-outs stand apart in the source and are kept apart here.

Sequences of proteins named here, by UniProt entry; tags and fusion partners are left off.
UniProt P61169, whole entry: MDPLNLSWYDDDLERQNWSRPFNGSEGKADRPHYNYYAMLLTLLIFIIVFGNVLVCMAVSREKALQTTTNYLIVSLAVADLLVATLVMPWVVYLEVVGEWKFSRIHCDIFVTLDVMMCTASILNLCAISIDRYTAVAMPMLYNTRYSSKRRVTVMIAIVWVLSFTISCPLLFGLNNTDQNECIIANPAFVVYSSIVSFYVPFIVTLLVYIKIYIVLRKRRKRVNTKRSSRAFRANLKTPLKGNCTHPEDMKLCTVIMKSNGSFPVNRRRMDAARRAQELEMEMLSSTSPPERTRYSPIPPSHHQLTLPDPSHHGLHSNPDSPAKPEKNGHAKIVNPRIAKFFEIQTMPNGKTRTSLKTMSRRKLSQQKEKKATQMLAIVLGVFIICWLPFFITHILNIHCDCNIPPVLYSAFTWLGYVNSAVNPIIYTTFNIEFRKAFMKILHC
UniProt P31652, whole entry: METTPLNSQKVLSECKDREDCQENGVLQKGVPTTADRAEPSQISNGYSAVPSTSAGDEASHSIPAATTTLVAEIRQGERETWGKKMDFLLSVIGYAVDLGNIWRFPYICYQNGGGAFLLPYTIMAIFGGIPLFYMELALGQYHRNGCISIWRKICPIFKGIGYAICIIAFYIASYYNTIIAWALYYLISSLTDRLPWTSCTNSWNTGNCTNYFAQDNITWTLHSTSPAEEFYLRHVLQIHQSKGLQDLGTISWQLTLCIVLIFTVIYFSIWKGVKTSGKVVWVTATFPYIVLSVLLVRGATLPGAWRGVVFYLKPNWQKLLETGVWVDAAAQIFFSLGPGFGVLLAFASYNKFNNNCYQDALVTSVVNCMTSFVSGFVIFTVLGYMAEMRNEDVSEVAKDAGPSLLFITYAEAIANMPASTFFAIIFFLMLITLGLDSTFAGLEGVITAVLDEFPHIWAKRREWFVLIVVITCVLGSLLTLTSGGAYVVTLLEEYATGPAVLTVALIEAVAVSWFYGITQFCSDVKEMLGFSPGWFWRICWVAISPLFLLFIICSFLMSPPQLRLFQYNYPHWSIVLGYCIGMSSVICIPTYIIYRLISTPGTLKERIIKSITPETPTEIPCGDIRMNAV
UniProt P14416, whole entry: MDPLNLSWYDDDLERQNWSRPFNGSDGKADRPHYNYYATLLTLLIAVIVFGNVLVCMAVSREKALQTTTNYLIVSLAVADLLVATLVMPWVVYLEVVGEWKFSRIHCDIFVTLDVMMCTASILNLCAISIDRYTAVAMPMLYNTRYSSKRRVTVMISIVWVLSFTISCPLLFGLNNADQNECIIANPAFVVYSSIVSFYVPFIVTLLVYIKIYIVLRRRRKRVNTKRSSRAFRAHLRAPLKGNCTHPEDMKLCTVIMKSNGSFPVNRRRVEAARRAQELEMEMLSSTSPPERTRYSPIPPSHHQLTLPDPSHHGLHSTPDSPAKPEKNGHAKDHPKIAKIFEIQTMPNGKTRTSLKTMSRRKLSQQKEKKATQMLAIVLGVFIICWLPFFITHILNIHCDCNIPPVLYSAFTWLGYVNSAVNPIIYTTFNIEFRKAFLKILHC

What was measured:
dopamine-D2 receptors = dopamine-D2 receptors (Rattus norvegicus, UniProt P61169); test: In vitro affinity for dopamine-D2 receptors ([3H]-spiroperidol receptor binding assay)
Method: In Vitro Affinity for Dopamine-D2 Receptors
Affinity of the compounds for dopamine-D2 receptors was determined using the receptor binding assay described by 1. Creese, R. Schneider and S. H. Snyder: “[^3H]-Spiroperidol labels dopamine receptors in rat pituitary and brain”, Eur. J. Pharmacol., 46, 377-381, 1977.

serotonin reuptake sites = serotonin reuptake sites (Rattus norvegicus, UniProt P31652); test: In vitro affinity for serotonin reuptake sites ([3H]-paroxetine binding)
Method: In Vitro Affinity for Serotonin Reuptake Sites
Affinity of the compounds for serotonin reuptake sites was determined using the receptor binding assay described by E. Habert et al.,: “Characterisation of [^3H]-paroxetine binding to rat cortical membranes”, Eur. J. Pharmacol., 118, 107-114, 1985.

[1] = molecular target: Human dopamine D2,L receptors (Homo sapiens, UniProt P14416); test: Inhibition of forskolin-induced [3H]-cAMP accumulation in CHO-K1 cells; type: cell-based; conditions: cloned human dopamine D2,L receptors, full agonist ε=1, full antagonist ε=0
Method: Inhibition of Forskolin-Induced [^3H]-cAMP Accumulation
The in vitro functional activity at dopamine-D2 receptors, including the intrinsic activity (E) of the compounds of the invention was measured by their ability to inhibit forskolin-induced [^3H]-cAMP accumulation.
Human dopamine D2,L receptors were cloned in fibroblast cell line CHO-K1′ cells and obtained from Dr. Grandy, Vollum Institute, Portland, Oreg., USA. CHO cells were grown in a Dulbecco's modified Eagle's medium (DMEM) culture medium, supplemented with 10% heat-inactivated fetal calf serum, 2 mM glutamine, 1 mM pyruvate, 5000 units/ml penicillin, 5000 μg/ml streptomycin and 200 μg/ml G-418 at 37° C. in 93% air/7% CO2. For incubation with test compounds, confluent cultures grown in 24 wells plates were used. Each condition or substance was routinely tested in quadruplicate. Cells were loaded with 1 μCi [^3H]-adenine in 0.5 ml medium/well. After 2 hours, cultures were washed with 0.5 ml PBS containing 1 mM of the phosphodiesterase inhibitor isobutylmethylxanthine (IBMX) and incubated for 20 min with 0.5 ml PBS containing 1 mM IBMX and forskolin with or without test compound. After aspiration the reaction was stopped with 1 ml trichloroacetic acid 5% (w/v). […] 0.8 ml Extract was passed over Dowex (50WX-4 200-400 mesh) and aluminumoxide columns, eluted with water and 0.1M imidazole (pH=7.5). Eluates were mixed with 7 ml Insta-gel and radioactivity was counted with a liquid scintillation counter. The conversion of [^3H]-ATP into [^3H]-cAMP was expressed as the ratio in percentage radioactivity in the cAMP fraction as compared to combined radioactivity in both cAMP and ATP fractions, and basal activity was subtracted to correct for spontaneous activity.
Test compounds were obtained as 10 mM stock solutions in 100% DMSO, and diluted in PBS/IBMX to final concentrations. Typically, compounds were used in concentrations that ranged from 10^−10M to 10^−5M. From quadruplicate data counts, the mean was taken as an estimate for drug-induced, receptor-mediated effects at specified second messenger accumulation, expressed as percentage of control values (forskolin-stimulated cAMP accumulation, subtracted by basal activity). By using the non-linear curve-fitting program INPLOT or the Excel-add-in XL-Fit, mean values were plotted against drug concentration (in molar) and a sigmoid curve (four-parameter logistic curve) was constructed. The maximal forskolin-induced stimulated conversion is taken as maximum value and the maximal inhibition (usually at drug concentrations 10^−4 M or 10^−5 M) as minimum and these values were fixed during the fitting process. Thus, concentrations of the compound, causing 50% of the maximally obtained inhibition of forskolin-induced cAMP accumulation (EC50), are averaged over several experiments and presented as mean pEC50±SEM. Antagonist potency is assessed by co-incubating cells with a fixed agonist concentration and specified antagonist concentrations. Curve fitting procedures are identical to those used for estimating EC50 values. Thus IC50 values, i.e. the concentration that is able to achieve 50% of maximal antagonism that can be achieved by this compound. IC50 values are corrected using a Cheng-Prussoff equation, correcting it for agonist concentration and EC50 values that is obtained in the same experiment. Thus, Kb=IC50/(1+[agonist]/EC50, agonist). The corresponding pA2 value is −log (Kb). Concentration-response curve fitting allows estimation of pEC50 values and of maximal achievable effect (intrinsic activity or efficacy (ε). A full receptor agonist has ε=1, a full receptor antagonist has ε=0, and a partial receptor agonist has an intermediate intrinsic activity.

| Compound | Dopamine-D2 binding pKi (dopamine-D2 receptors) | 5-HT reuptake binding pKi (serotonin reuptake sites) | Dopamine-D2 cAMP accum ε (intrinsic activity) [1] | Dopamine-D2 binding pKi (dopamine-D2 receptors; tested form: HCl) | 5-HT reuptake binding pKi (serotonin reuptake sites; tested form: HCl) | Dopamine-D2 cAMP accum ε (intrinsic activity) ([1]; tested form: HCl) |
| --- | --- | --- | --- | --- | --- | --- |
| O=c1[nH]c2cccc(N3CCN(CCOc4n[nH]c5ccc(F)cc45)CC3)c2o1 | 8.9 | 8.1 | 0.38 |  |  |  |
| Cn1c(=O)oc2c(N3CCN(CCCCn4ccc5ccc(C#N)cc54)CC3)cccc21 | 7.4 | 9.0 | 0.81 |  |  |  |
| Cn1c(=O)oc2c(N3CCN(CCCOn4ccc5ccc(C#N)cc54)CC3)cccc21 | 7.7 | 8.1 | 0.95 |  |  |  |
| Cn1c(=O)oc2c(N3CCN(CCCCn4ccc5ccc(F)cc54)CC3)cccc21 |  |  |  | 6.9 | 9.0 | 0.75 |
| Cn1c(=O)oc2c(N3CCN(CCCCn4ncc5ccc(F)cc54)CC3)cc(Cl)cc21 | 7.0 | 7.3 | 0.24 |  |  |  |
| C=C(COc1ccc2ccc(F)cc2c1)CN1CCN(c2cccc3c2oc(=O)n3C)CC1 | 8.1 | >9.0 | 0.29 |  |  |  |
| O=c1[nH]c2cc(Cl)cc(N3CCN(CCCC4=CCc5ccc(F)cc54)CC3)c2o1 | 7.1 | 8.5 | 0.10 |  |  |  |
